Results from publication PMC4828713, “New potential binding determinant for hERG channel inhibitors” (Scientific Reports, 2016).

Legend:
[1] = biological target: wild type hERG (WT) channels (Homo sapiens, UniProt Q12809); experiment: Two-microelectrode voltage clamp, tail current inhibition of WT hERG expressed in Xenopus laevis oocytes; settings: from concentration-response relationship
From the text: (§1) For hERG measurements, the oocytes were clamped at a holding potential of −100 mV and depolarized to +20 mV allowing activation and inactivation. […] Channel block was estimated from tail current inhibition.

Y652A-hERG = Y652A-hERG (Homo sapiens, UniProt Q12809, Y652A); experiment: Two-microelectrode voltage clamp, tail current inhibition of mutant Y652A hERG in Xenopus laevis oocytes; settings: from concentration-response relationship
From the text: as §1

With COc1cc(N)c(Cl)cc1C(=O)NC1CCN(CCCOc2ccc(F)cc2)CC1OC (centres unmarked) [Cisapride, cisapride] the “WT nH (hill coefficient)” value [1] was 0.9 ± 0.03 and the “Y652A-hERG nH (hill coefficient)” value (Y652A-hERG) was 1.03 ± 0.1.
